By UniProt entry, the sequences of proteins in these tests, tags left out.
UniProt Q01970, whole entry: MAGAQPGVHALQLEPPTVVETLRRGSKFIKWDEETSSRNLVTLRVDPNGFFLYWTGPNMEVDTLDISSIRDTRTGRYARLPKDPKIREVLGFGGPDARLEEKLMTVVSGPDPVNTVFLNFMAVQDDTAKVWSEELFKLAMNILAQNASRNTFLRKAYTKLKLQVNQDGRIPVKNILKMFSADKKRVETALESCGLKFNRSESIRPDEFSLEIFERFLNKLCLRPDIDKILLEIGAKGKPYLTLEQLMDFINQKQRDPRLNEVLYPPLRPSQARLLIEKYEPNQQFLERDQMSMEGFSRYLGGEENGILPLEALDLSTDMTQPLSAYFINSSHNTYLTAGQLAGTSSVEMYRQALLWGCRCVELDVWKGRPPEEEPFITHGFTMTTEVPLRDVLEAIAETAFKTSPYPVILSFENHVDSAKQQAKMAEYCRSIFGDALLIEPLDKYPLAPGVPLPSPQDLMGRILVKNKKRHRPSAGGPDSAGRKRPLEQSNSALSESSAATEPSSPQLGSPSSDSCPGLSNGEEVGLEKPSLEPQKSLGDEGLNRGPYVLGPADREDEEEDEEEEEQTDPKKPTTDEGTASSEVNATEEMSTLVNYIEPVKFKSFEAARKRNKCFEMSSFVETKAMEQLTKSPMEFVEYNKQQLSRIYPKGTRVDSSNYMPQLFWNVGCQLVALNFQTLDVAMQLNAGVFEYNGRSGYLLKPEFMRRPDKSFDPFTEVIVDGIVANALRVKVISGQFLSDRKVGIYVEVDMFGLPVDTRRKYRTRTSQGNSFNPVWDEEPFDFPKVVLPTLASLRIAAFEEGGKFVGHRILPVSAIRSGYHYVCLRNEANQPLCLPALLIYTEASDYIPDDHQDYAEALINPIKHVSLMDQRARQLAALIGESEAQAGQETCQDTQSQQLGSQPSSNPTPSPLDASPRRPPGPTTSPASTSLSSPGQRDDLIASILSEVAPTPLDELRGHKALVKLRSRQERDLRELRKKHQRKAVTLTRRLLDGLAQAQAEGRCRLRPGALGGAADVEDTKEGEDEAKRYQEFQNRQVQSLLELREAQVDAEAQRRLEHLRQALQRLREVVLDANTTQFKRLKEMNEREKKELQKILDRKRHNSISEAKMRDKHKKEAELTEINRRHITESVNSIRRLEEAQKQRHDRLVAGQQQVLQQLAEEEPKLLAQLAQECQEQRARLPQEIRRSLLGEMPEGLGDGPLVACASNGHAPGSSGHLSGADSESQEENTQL

This is a selection; strong and weak results do not stand in their true shares. Some salts and complexes are drawn in separate pieces, as the source files them; their charges need not balance. The source made the active and inactive calls. Cut-off read from the data, not from the text of the source: active = inhibition above about 11%; inactive = the rest.
The molecules below were run against 1-phosphatidylinositol 4,5-bisphosphate phosphodiesterase beta-3 (Homo sapiens) (UniProt Q01970) (assay: human PLC-beta3 inhibitors, primary screen, biochemical, fluorescence (AID 720704;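 note: 0% = median of compound wells on plate and 100% = full blocker control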)). Details: Purified PLC-beta3, fluorogenic substrate, at 12.2 µM, stronger effect = higher value.
For `CP(=O)(Nc1ccc(Cl)cc1Cl)Oc1ccccc1` (stereo not given), the inhibition was inactive: -8.82%.
`CP(=O)(OCCOc1ccccc1)OCCOc1ccccc1` was tested, and the inhibition was inactive: 3.1%.
For `CN(C)CCOC(=O)C(O)(c1ccccc1)C1CCCC1` (stereo not given), the inhibition was inactive: 2.31%.
For `COc1ccc(OP(C)(=O)Nc2ccccn2)cc1` (stereo not given), the inhibition was inactive: 2.31%.
`COc1ccccc1OP(C)(=O)Nc1ccc(Br)cc1` (stereo not given) was tested, and the inhibition was inactive: -2.87%.
In the case of `CCc1ccc(OP(C)(=O)O)cc1`, the inhibition is reported as inactive: 2.33%.
`COc1ccccc1OP(C)(=O)Nc1ccc(C)cc1C` (stereo not given) was tested, and the inhibition was inactive: 2.08%.
With `CP(=O)(Nc1ccccn1)Oc1ccccc1` (stereo not given) the inhibition was inactive: -1.91%.
For `Cc1c(NP(C)(=O)Oc2ccc(C(C)C)cc2)c(=O)n(-c2ccccc2)n1C` (stereo not given), the inhibition was inactive: -2.42%.
In the case of `O=[N+]([O-])c1cc([N+](=O)[O-])c(Nc2ccccn2)c([N+](=O)[O-])c1`, the inhibition is reported as inactive: 5.11%.
For `CCc1ccc(OP(C)(=O)Nc2cccnc2)cc1` (stereo not given), the inhibition was inactive: -3.87%.
In the case of `CP(=O)(Oc1ccccc1)N1CCOC1=O` (stereo not given), the inhibition is reported as inactive: 2.8%.
With `O=C(OCCCN1CCCC1)C(O)(c1ccccc1)C1CCCCC1` (stereo not given) the inhibition was inactive: -7.51%.
`COc1ccccc1OP(C)(=O)Nc1c(C)n(C)n(-c2ccccc2)c1=O` (stereo not given) was tested, and the inhibition was inactive: -4.07%.
With `COc1ccc(OP(C)(=O)Nc2ccc(Br)cc2)cc1` (stereo not given) the inhibition was inactive: 4.18%.
With `CCN(CC)CC(O)COC(=O)C(O)(c1ccccc1)C1CCCCC1` (stereo not given) the inhibition was inactive: -0.29%.
For `CN(C)C(=O)c1c([N+](=O)[O-])cc([N+](=O)[O-])cc1[N+](=O)[O-]`, the inhibition was inactive: -4.28%.
For `CP(=O)(Nc1ccc(Cl)cc1)Oc1ccc(F)cc1` (stereo not given), the inhibition was inactive: 1.65%.
`COc1ccccc1OP(C)(=O)Nc1ccccc1Br` (stereo not given) was tested, and the inhibition was inactive: -2.02%.
For `CC(C)(C)c1ccc(OP(C)(=O)O)cc1`, the inhibition was inactive: 3.63%.
For `CP(=O)(OC12CC3CC(CC(C3)C1)C2)OC12CC3CC(CC(C3)C1)C2`, the inhibition was inactive: -1.07%.
For `CCOC(=O)c1ccc(NP(C)(=O)Oc2ccc(Cl)cc2)cc1` (stereo not given), the inhibition was inactive: 3.91%.
For `Nc1ccc2c(ccc3cccnc32)n1.O=[N+]([O-])c1cc([N+](=O)[O-])c(O)c([N+](=O)[O-])c1`, the inhibition was inactive: -267%.
For `COc1ccc(NP(C)(=O)Oc2ccccc2OC)cc1` (stereo not given), the inhibition was inactive: 2.63%.
In the case of `CN(C)CCOC(=O)C(O)(c1ccccc1)C1CCCCC1` (stereo not given), the inhibition is reported as inactive: 6.47%.
With `COc1ccc(OP(C)(=O)Nc2cccc(Br)c2)cc1` (stereo not given) the inhibition was inactive: 1.41%.
For `Cc1c(C(c2ccc3c(c2)OCO3)c2c(C)n(C)n(-c3ccccc3)c2=O)c(=O)n(-c2ccccc2)n1C.O=[N+]([O-])c1cc([N+](=O)[O-])c(O)c([N+](=O)[O-])c1`, the inhibition was inactive: -5.69%.
With `O=[N+]([O-])c1cc([N+](=O)[O-])c(NCC2CCS(=O)(=O)C2)c([N+](=O)[O-])c1` (stereo not given) the inhibition was inactive: 1.64%.
`Cc1cc(-c2cccc3ccccc23)c(C)cn1.O=[N+]([O-])c1cc([N+](=O)[O-])c(O)c([N+](=O)[O-])c1` was tested, and the inhibition was inactive: -3.38%.
`O=[N+]([O-])c1ccc(OP2(=O)COCCO2)cc1` (stereo not given) was tested, and the inhibition was inactive: 0.76%.
For `CCOP(=O)(CC)OCC`, the inhibition was inactive: -4.26%.
In the case of `CCOP(C)(=S)SCC(=O)NC(C)(CC)C(=O)O` (stereo not given), the inhibition is reported as inactive: 3.94%.
`CP(=O)(Nc1ccc(SC(F)(F)F)cc1)Oc1ccc(F)cc1` (stereo not given) was tested, and the inhibition was inactive: -1.12%.
With `O=[N+]([O-])c1cc([N+](=O)[O-])c(C(F)(F)F)c([N+](=O)[O-])c1O` the inhibition was inactive: 3.93%.
For `Cc1ccccc1NP(C)(=O)Nc1ccccc1C`, the inhibition was inactive: 1.01%.
In the case of `CP(=O)(Nc1ccc2c(c1)OCCO2)Oc1ccccc1` (stereo not given), the inhibition is reported as inactive: 1.96%.
`CC(C)c1ccc(OP(C)(=O)Nc2ccc(SC(F)(F)F)cc2)cc1` (stereo not given) was tested, and the inhibition was inactive: 3.13%.
With `CP(=O)(Nc1ccccc1F)Oc1ccccc1` (stereo not given) the inhibition was inactive: 1.12%.
With `O=[N+]([O-])c1cc([N+](=O)[O-])c(Nc2ccc(Cl)cc2)c([N+](=O)[O-])c1` the inhibition was inactive: 1%.
With `COc1ccc2c(c1O)-c1c(O)c(OC)cc3c1[C@H](C2)[N+](C)(C)CC3.O=[N+]([O-])c1cc([N+](=O)[O-])c([O-])c([N+](=O)[O-])c1[O-]` the inhibition was inactive: -224%.
`O=C(OCCN1CCN(CCOCc2ccccc2)CC1)C(O)(c1ccccc1)c1ccccc1` was tested, and the inhibition was inactive: 2.04%.
In the case of `O=C(OC1CN2CCC1CC2)c1ccc([N+](=O)[O-])cc1` (stereo not given), the inhibition is reported as inactive: 1.38%.
With `COc1ccc(OP(C)(=O)Nc2ccc(SC(F)(F)F)cc2)cc1` (stereo not given) the inhibition was inactive: 3.44%.
For `CCOC(=O)c1ccc(NP(C)(=O)Oc2ccc(F)cc2)cc1` (stereo not given), the inhibition was inactive: -1.49%.
With `CCN(CC)CCCNc1ccccc1[N+](=O)[O-].O=[N+]([O-])c1cc([N+](=O)[O-])c(O)c([N+](=O)[O-])c1` the inhibition was inactive: 3.59%.
`CCCCCOc1ccc(NP(C)(=O)Oc2ccc(Cl)cc2Cl)cc1` (stereo not given) was tested, and the inhibition was inactive: -6.86%.
In the case of `O=[N+]([O-])c1cc([N+](=O)[O-])c(OC2CCCCC2O)c([N+](=O)[O-])c1` (stereo not given), the inhibition is reported as inactive: -1.87%.
For `CP(=O)(Nc1ccccc1)Oc1ccc(F)cc1` (stereo not given), the inhibition was inactive: 1.87%.
With `CCN(CC)CCCOC(=O)C(O)(c1ccccc1)C1CCCCC1` (stereo not given) the inhibition was inactive: 2.37%.
With `Cc1c([N+](=O)[O-])cc([N+](=O)[O-])c(Br)c1[N+](=O)[O-]` the inhibition was inactive: 5.83%.
